# From PubChem BioAssay AID1481 (The Scripps Research Institute Molecular Screening Center, 2009)
# Sequences of proteins named here, by UniProt entry; tags and fusion partners are left off.
# UniProt P55072, whole entry, looked up: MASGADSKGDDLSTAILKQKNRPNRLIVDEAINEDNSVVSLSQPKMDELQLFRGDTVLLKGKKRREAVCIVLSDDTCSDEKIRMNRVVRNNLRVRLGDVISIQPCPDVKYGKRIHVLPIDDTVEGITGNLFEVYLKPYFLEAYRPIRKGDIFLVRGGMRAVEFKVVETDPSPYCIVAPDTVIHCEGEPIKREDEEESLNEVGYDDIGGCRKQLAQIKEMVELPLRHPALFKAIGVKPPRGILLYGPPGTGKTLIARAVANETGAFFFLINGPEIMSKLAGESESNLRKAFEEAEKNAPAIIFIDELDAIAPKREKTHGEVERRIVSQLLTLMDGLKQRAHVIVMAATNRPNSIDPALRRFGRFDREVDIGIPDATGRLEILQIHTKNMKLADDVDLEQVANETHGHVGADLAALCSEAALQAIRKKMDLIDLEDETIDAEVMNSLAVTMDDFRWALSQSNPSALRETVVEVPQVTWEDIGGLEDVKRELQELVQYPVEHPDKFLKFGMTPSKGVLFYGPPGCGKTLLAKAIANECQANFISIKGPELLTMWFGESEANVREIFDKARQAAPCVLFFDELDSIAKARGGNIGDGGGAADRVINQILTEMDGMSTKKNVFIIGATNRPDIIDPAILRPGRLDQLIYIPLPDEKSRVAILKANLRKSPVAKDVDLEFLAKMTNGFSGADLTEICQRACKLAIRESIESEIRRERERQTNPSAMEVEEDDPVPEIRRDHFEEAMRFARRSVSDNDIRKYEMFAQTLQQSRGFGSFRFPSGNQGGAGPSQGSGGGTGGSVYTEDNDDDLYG
# This is a selection; strong and weak results do not stand in their true shares. Calls of active or inactive are those of the source. Cut-off read from the data, not from the text of the source: active = inhibition above about 15%; inactive = the rest.
# Molecular target: Transitional endoplasmic reticulum ATPase (Homo sapiens) (UniProt P55072)
# Experiment: inhibitors of human p97 ATPase, primary screen, biochemical (AID 1481);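 note: 0% = DMSO vehicle and 100% = wells lacking enzyme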
# Settings: recombinant p97 ATPase, Kinase-Glo ATP luminescence, 3 h; at 8 µM; hits give high values
row,Structure (SMILES),inhibition
1,CC(=O)NC(SC(=S)N(CC(C)C)CC(C)C)C(Cl)(Cl)Cl (stereo not given),inactive: -6.97%
2,Cc1ccc(OP(=O)(Nc2ccccn2)Oc2ccc(C)cc2)cc1,inactive: 2.45%
3,Cc1ccccc1OP(=O)(Nc1ccccn1)Oc1ccccc1C,inactive: -3.42%
4,CN(C)C(=O)Oc1noc2ccccc12,inactive: 8.64%
5,O=c1c2cc([N+](=O)[O-])ccc2[nH]c2c([N+](=O)[O-])cc([N+](=O)[O-])cc12,inactive: 8.48%
6,c1ccc(-c2nn[nH]n2)c(-c2nn[nH]n2)c1,inactive: 4.25%
7,Cc1ccc(NP(=O)(Oc2cccc(C)c2)Oc2cccc(C)c2)nc1,inactive: -2.1%
8,CCNC(=S)/N=C(\N)N[N+](=O)[O-],inactive: 2.34%
9,O=C(NC1CCS(=O)(=O)C1)NP(=S)(Oc1ccccc1)Oc1ccccc1 (stereo not given),inactive: -1.47%
10,O=[As](O)(c1ccccc1)c1ccc(O)cc1,inactive: -4.66%
11,CC(=O)NC(SC(=S)N(C)C)C(Cl)(Cl)Cl (stereo not given),inactive: 7.39%
12,O=[N+]([O-])c1ncn(CCn2cnc([N+](=O)[O-])n2)n1,inactive: 2.51%
13,O=C(OC1CN2CCC1CC2)c1cccc(Cl)c1 (stereo not given),inactive: 0.64%
14,Nc1ccc([As](=O)(O)c2ccc([N+](=O)[O-])cc2)cc1,inactive: 10.4%
15,C(Cc1nn[nH]n1)Cc1nn[nH]n1,inactive: 3.87%
16,O=P(Nc1ccccn1)(c1ccc(Br)cc1)c1ccc(Br)cc1,inactive: -1.26%
17,O=P(Nc1nc2ccccc2s1)(c1ccccc1)c1ccccc1,inactive: -5.2%
18,CC(C)C(=O)NC(Sc1ccccc1)C(Cl)(Cl)Cl (stereo not given),inactive: 0.8%
19,O=P(Nc1nccs1)(c1ccccc1)c1ccccc1,inactive: 2.26%
20,c1nnnn1CCn1cnnn1,inactive: 2.72%
